{
  "source": "patent US12357565B2",
  "about": "“Ocular implant containing a tyrosine kinase inhibitor” (Ocular Therapeutix, Inc., priority 2020, dated 2025)",
  "settings": "rabbit",
  "key": {"[1]": {"settings": "600 μg axitinib bolus, 1 month, scale 0-5, mean (SD)"}},
  "data": [
    {"smiles": "CNC(=O)c1ccccc1Sc1ccc2c(/C=C/c3ccccn3)n[nH]c2c1", "note": "[axitinib, N-methyl-2-[3-((E)-2-pyridin-2-yl-vinyl)-1H-indazol-6-ylsulfanyl]-benzamide]", "values": [
      {"measurement": "IOPs determined weekly", "setting": "600 μg axitinib bolus", "result": "remained within the normal range"},
      {"measurement": "Tolerability of intravitreal bolus dosing", "setting": "600 μg axitinib bolus", "result": "generally tolerable"},
      {"measurement": "Eyes with minimal retinal disruption with a few macrophages in the photoreceptor layer", "setting": "600 μg axitinib bolus, 1 month", "result": "1 of 6"},
      {"measurement": "Eyes with minimal retinal vacuolization", "setting": "600 μg axitinib bolus, 1 month", "result": "4 of 6"},
      {"measurement": "Eyes with minimal to mild chronic subcorneal inflammation", "setting": "600 μg axitinib bolus, 1 month", "result": "4 of 6"},
      {"measurement": "Gross lesions", "setting": "600 μg axitinib bolus, 1 month", "result": "No gross lesions"},
      {"measurement": "Chronic Subcorneal Inflammation score", "setting": "[1]", "result": "0.28 (0.38)"},
      {"measurement": "Fibrosis Around the Article score", "setting": "[1]", "result": "0.00 (0.00)"},
      {"measurement": "Retinal Vacuolization score", "setting": "[1]", "result": "0.50 (0.46)"},
      {"measurement": "Retinal, Scleral, or Episcleral Inflammation score", "setting": "[1]", "result": "0.03 (0.05)"},
      {"measurement": "Vitreous Chamber Inflammation score", "setting": "[1]", "result": "0.23 (0.21)"},
      {"measurement": "Retinal Disruption score", "setting": "600 μg axitinib suspension in ProVisc®, intravitreal bolus, 1 month, scale 0-5, mean (SD)", "result": "0.10 (0.11)"}
    ]}
  ]
}
